Experimental data reported in patent US20240342137A1 (priority 2023, published 2024).

Columns and labels:
alpha-2 adrenoceptors [1] = conditions: cited from earlier work
alpha-2 adrenoceptors [2] = target: T1, alpha-2 adrenoceptors; conditions: cited from earlier work
T1 construct: rows headed: Alpha-2 Ki; other: [3H]clonidine displacement, brain membrane; other: alpha-2; lower sensitivity compared to atipamezole; other: alpha-2, vs atipamezole

In the case of `COC(=O)[C@@H]1[C@H]2C[C@H]3c4[nH]c5ccccc5c4CCN3C[C@@H]2CC[C@@H]1O` [Yohimbine], the “Alpha-2toAlpha-2 ratio (specificity)” value (alpha-2 adrenoceptors [1]) is listed as 40, the Ki (alpha-2 adrenoceptors [2]) is listed as 130 nM and the IC50 (alpha-2 adrenoceptors [2]; read-out: half-maximal inhibitory concentration) is listed as 130 nM.

With `CCC1(c2c[nH]cn2)Cc2ccccc2C1.Cl` [atipamezole HCl, 4-(2-ethyl-2,3-dihydro-1H-inden-2-yl)-1 H-imidazole hydrochloride] the solubility (physchem) was about 5000 µg/mL.
